Entries after “also recorded” stand apart in the source; their conditions may differ.
Test system: cultured human adipocytes
Experiment: In vitro lipolysis assay (glycerol release) in cultured adipocytes
Format: cell-based
Method: In the in vitro lipolysis assay, glycerol was detected in cell culture media via a spectrophotometric measurement after chemical oxidation with hydrogen peroxide. Glycerol was measured over a three hour time period. Levels of lipolysis in cultured human adipocytes were tested after exposure to a beta agonist alone, a glucocorticosteroid alone, or the combination of the two for one or more preincubation periods as described in more detail below.
Human subcutaneous adipocytes were used in the lipolysis assay. Adipose tissue was harvested from liposuction or lipectomy and pre-adipocytes were isolated as follows. Briefly, fat tissue was minced and incubated at 37° C. in Krebs-Ringer bicarbonate buffer containing 1% bovine serum albumin and 0.1% collagenase in an oxygen-rich shaking chamber (5% CO2; 75 strokes/min) for 1 hour. The suspension was filtered through a 400 tim nylon mesh and centrifuged for 1 mm at 100 g. The pre-adipocytes in the […] were washed twice with and then plated in 96 well plates at a density of cells/well. The pre-adipocytes were cultured in maintenance medium for seven days as they differentiated into adipocytes.
At −21 hours before the lipolysis assay, medium was removed from each well and replaced with 75 μl of Maintenance Medium containing appropriate drug or DMSO (vehicle) concentrations (see Experimental Design section below). Each test drug or control treatment was applied to 8 wells/group (12 treatment groups per 96-well plate). At −3 hours prior to the lipolysis assay, each well was washed two times with Wash Buffer (200 μl/wash), filled with test or control solutions made up in Assay Buffer (75 μl/well), and then incubated for three hours, i.e., until measurement of glycerol content in the Assay Buffer. For some groups, a drug was only added for the three hour incubation period (see Experimental and Control Groups Below).
The glycerol content of the Assay Buffer from each well following the incubation was used as an index for lipolysis, where an increase in glycerol indicated lipolysis. Glycerol levels were assayed colorimetrically via a commercial glycerol assay kit (Randox Laboratory, United Kingdom) and quantified by comparison to a glycerol serial dilution standard curve (3 μM-200 μM). Glycerol concentrations for each well were normalized to cell density.
In each of the following control or experimental groups n=8 corresponding to the glycerol measurements for 8 wells from a 96-well cell culture plate.

OCc1cc(C(O)CNCCCCCCOCCCCc2ccccc2)ccc1O (racemic) [Salmeterol, ±2-(hydroxymethyl)-4-[1-hydroxy-2-[6-(4-phenylbutoxy)hexylamino]ethyl]-phenol]
effect on lipolysis in cultured adipocytes (words) (18 hour incubation, Salmeterol 10^−6 M or 10^−8 M, Budesonide 10^−6 M, Isoproterenol 10^−6 M): decreases lipolysis; also recorded: dose-dependent suppression of lipolysis
effect on lipolysis in cultured adipocytes (words) (three hour incubation): dose-dependent induction of lipolysis
increase in lipolysis relative to negative control (three hour incubation, glycerol in Assay Buffer, isoproterenol 10^−6 M): slightly greater than two fold
lipolysis compared with isoproterenol (positive control) (three hour incubation, isoproterenol 10^−6 M): equal to or less than that observed for Isoproterenol
effect on lipolysis in cultured adipocytes (words) (three hour incubation, listed as salmeterol): effectively induce lipolysis

Source: patent US20100119609A1, “METHODS, COMPOSITIONS, AND FORMULATIONS FOR THE TREATMENT OF THYROID EYE DISEASE” (priority 2006, published 2010)
